{"source": "patent US20030083469A1", "about": "“Allosteric control of nuclear hormone receptors” (The Salk Institute for Biological Studies, priority 1995, published 2003)", "molecular_target": "T1, GST-hRXRα (Homo sapiens, UniProt P19793)", "T1 construct": "made in house", "T1 sequence (P19793 1-462)": "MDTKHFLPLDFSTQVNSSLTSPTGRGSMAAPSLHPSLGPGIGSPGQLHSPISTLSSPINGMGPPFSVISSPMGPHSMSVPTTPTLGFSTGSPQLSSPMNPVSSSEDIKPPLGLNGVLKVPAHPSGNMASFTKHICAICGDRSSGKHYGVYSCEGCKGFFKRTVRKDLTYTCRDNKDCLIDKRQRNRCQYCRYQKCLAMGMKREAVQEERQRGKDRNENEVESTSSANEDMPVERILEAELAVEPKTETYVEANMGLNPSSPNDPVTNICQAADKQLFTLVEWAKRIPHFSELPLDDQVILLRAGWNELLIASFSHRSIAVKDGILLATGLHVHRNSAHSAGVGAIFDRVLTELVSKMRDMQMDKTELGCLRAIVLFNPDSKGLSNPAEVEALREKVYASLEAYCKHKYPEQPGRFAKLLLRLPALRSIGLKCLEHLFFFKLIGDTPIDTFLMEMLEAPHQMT", "experiment": "Ligand binding assay with GST-RXR (glutathione-sepharose)", "settings": "50 nM [3H] LG69; 2 μM unlabeled ligand", "data": [{"smiles": "CC1(C)CCC(C)(C)c2cc(C(=O)Nc3ccc(C(=O)O)cc3)ccc21", "note": "[Am580, 4-(5,6,7,8-tetrahydro-5,5,8,8-tetramethyl-2-napthamido) benzoic acid]", "values": [{"measurement": "competition of [3H] LG69 binding to GST-RXR by unlabeled ligand", "value": "not"}]}]}
